Only a part is listed here, and it is no random draw. Calls of active or inactive are those of the source. Cut-off read from the data, not from the text of the source: active = inhibition above about 36%; inactive = the rest.
Target: Serine protease HTRA1 (Homo sapiens) (UniProt Q92743)
Assay: HTRA1 serine protease inhibitors, primary screen, biochemical, fluorescence polarization, HTS (AID 504803);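 note: 0% = enzyme with DMSO and 100% = wells lacking enzyme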
Settings: recombinant HTRA1, FP-rhodamine activity-based probe, at 5.96 µM, stronger effect = higher value

Chains of the proteins cited; added tags and fusions are not shown.
UniProt Q92743, whole entry: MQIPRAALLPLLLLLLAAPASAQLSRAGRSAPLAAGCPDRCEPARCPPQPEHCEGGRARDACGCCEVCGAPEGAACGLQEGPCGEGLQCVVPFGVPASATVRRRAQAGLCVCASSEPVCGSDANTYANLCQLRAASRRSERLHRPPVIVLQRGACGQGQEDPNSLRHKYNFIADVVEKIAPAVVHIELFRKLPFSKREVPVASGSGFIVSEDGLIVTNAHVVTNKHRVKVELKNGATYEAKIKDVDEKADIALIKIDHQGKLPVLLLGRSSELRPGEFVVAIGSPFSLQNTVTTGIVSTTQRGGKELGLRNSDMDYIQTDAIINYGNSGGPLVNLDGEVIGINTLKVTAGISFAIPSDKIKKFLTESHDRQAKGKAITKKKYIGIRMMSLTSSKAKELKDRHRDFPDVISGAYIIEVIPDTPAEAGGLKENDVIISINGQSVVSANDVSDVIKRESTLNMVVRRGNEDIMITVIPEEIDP

SMILES | inhibition
CP(=S)(Nn1cnnc1)Oc1ccccc1 (centres undefined) | inactive: 0.25%
COc1ccccc1OP(C)(=O)Nc1ccccc1 (centres undefined) | inactive: 3.99%
CP(=O)(Nc1ccccc1Br)Oc1ccccc1 (centres undefined) | inactive: 15.8%
Cc1cccc(C)c1OP(C)(=O)Nc1ccc(SC(F)(F)F)cc1 (centres undefined) | inactive: 3.22%
Cc1ccc(Nc2c([N+](=O)[O-])cc([N+](=O)[O-])cc2[N+](=O)[O-])cc1 | inactive: 28.8%
CP(=O)(Oc1ccccc1)OC(c1ccccc1)C(F)(F)F (centres undefined) | inactive: -6.42%
CCc1ccc(OP(C)(=O)N2CCN(c3ccc([N+](=O)[O-])cc3)CC2)cc1 (centres undefined) | inactive: -7.24%
CP(=O)(NC(=O)Nc1ccccc1)Oc1ccccc1 (centres undefined) | inactive: 0.29%
Cc1cc(C)cc(OP(C)(=O)Nc2ccc(SC(F)(F)F)cc2)c1 (centres undefined) | inactive: -32.1%
CCOP(C)(=S)SCC(=O)NC(C)C(=O)O (centres undefined) | inactive: 1.27%
CCOC(=O)c1ccc(NP(C)(=O)Oc2ccc(OC)cc2)cc1 (centres undefined) | inactive: 3.14%
CP(=O)(Nc1ccccn1)Oc1ccc(Cl)cc1 (centres undefined) | inactive: -2.05%
CCN(CC)CCCOC(=O)C(O)(c1ccccc1)c1ccccc1 | inactive: -5.66%
O=[N+]([O-])c1cc([N+](=O)[O-])c(Nc2cccnc2)c([N+](=O)[O-])c1 | inactive: 8.37%
CC(C)(C)c1ccc(OP(C)(=O)Nc2ccc(SC(F)(F)F)cc2)cc1 (centres undefined) | inactive: -35%
Cc1cccc(C)c1OP(C)(N)=O (centres undefined) | inactive: -1.65%
O=[N+]([O-])c1ccc2c(c1)C=Nc1ccccc1O2 | inactive: 2.18%
CCOC(=O)c1ccc(NP(C)(=O)Oc2ccccc2)cc1 (centres undefined) | inactive: 8.23%
COc1ccccc1OP(C)(=O)Nc1ccc(C)cc1 (centres undefined) | inactive: -4.77%
Cc1ccc(NP(C)(=O)Oc2ccccc2)c(C)c1 (centres undefined) | inactive: -4.29%
COc1ccccc1OP(C)(=O)Nc1cc(Cl)ccc1C (centres undefined) | inactive: -3.28%
COc1ccc(OP(C)(=O)Nc2cccc(F)c2)cc1 (centres undefined) | inactive: -6.87%
Cc1cc(C)cc(OP(C)(N)=O)c1 (centres undefined) | inactive: 4.79%
O=C(O)c1cccc(Nc2c([N+](=O)[O-])cc([N+](=O)[O-])cc2[N+](=O)[O-])c1 | inactive: -0.6%
CC1=NCCc2c1[nH]c1ccccc21.O=[N+]([O-])c1cc([N+](=O)[O-])c(O)c([N+](=O)[O-])c1 | inactive: 3.13%
COc1ccccc1OP(C)(=O)Nc1cccc(Br)c1 (centres undefined) | inactive: -5.74%
Cc1cc(C)cc(OP(C)(=O)Nc2ccc(C)cc2C)c1 (centres undefined) | inactive: -4.46%

SMILES | inhibition
CCOC(=O)c1ccc(NP(C)(=O)Oc2cc(C)cc(C)c2)cc1 (centres undefined) | inactive: -8.73%
CP(=O)(Nc1cccc(Br)c1)Oc1ccccc1 (centres undefined) | inactive: 1.01%
Cc1cc(C)cc(OP(C)(=O)Nc2ccccn2)c1 (centres undefined) | inactive: -0.92%
Cc1ccc(C)c(NP(C)(=O)Oc2ccccc2)c1 (centres undefined) | inactive: 2.87%
O=[N+]([O-])c1cc([N+](=O)[O-])c(-n2nnc3ccccc32)c([N+](=O)[O-])c1 | inactive: -10.5%
O=[N+]([O-])c1cc([N+](=O)[O-])c(-c2cnn(-c3ccccc3)c2)c([N+](=O)[O-])c1 | inactive: 7.61%
Cc1nc2ccc3ccccc3c2s1.O=[N+]([O-])c1cc([N+](=O)[O-])c(O)c([N+](=O)[O-])c1 | inactive: -5.62%
O=[N+]([O-])c1cc([N+](=O)[O-])c(Nc2nnnn2CCO)c([N+](=O)[O-])c1 | inactive: -6.7%
CC1=C2N=C(C=C3N=C(C(C)=C4[N-][C@@](C)([C@@H]5N=C1[C@](C)(CCC(=O)NC[C@@H](C)OP(=O)([O-])O[C@H]1[C@@H](O)[C@@H](n6cnc7cc(C)c(C)cc76)O[C@@H]1CO)[C@H]5CC(N)=O)[C@@](C)(CC(N)=O)[C@@H]4CCC(N)=O)[C@@](C)(CC(N)=O)[C@@H]3CCC(N)=O)C(C)(C)[C@@H]2CCC(N)=O.[C-]#N.[Co+3] | inactive: 0.35%
CCOC(=O)C(CC)C1=NC(C)(C)Cc2ccccc21.O=[N+]([O-])c1cc([N+](=O)[O-])c(O)c([N+](=O)[O-])c1 (centres undefined) | inactive: 3.14%
COc1ccccc1OP(C)(=O)Nc1c(C)cccc1C (centres undefined) | inactive: 5.39%
CN1CCCCC1COC(=O)C1(O)c2ccccc2CCc2ccccc21 (centres undefined) | inactive: -3.12%
CP(=O)(Nc1ccc(SC(F)(F)F)cc1)Oc1ccccc1 (centres undefined) | inactive: -2.4%
CCCOc1ccc(NP(C)(=O)Oc2ccc(Cl)cc2)cc1 (centres undefined) | inactive: -5.89%
COc1ccc(OP(C)(=O)Nc2cccc(Br)c2)cc1 (centres undefined) | inactive: -2.76%
COc1ccc(NP(C)(=O)Oc2ccccc2OC)cc1 (centres undefined) | inactive: -1.46%
CN(C)CCOC(=O)C(O)(c1ccccc1)C1CCCCC1 (centres undefined) | inactive: 5.34%
O=[N+]([O-])c1cc([N+](=O)[O-])c(NCC2CCS(=O)(=O)C2)c([N+](=O)[O-])c1 (centres undefined) | inactive: 1.99%
Cc1cc(-c2cccc3ccccc23)c(C)cn1.O=[N+]([O-])c1cc([N+](=O)[O-])c(O)c([N+](=O)[O-])c1 | inactive: -15.7%
O=[N+]([O-])c1ccc(OP2(=O)COCCO2)cc1 (centres undefined) | inactive: 3.95%
Cc1c(C(c2ccc3c(c2)OCO3)c2c(C)n(C)n(-c3ccccc3)c2=O)c(=O)n(-c2ccccc2)n1C.O=[N+]([O-])c1cc([N+](=O)[O-])c(O)c([N+](=O)[O-])c1 | inactive: 1.07%
CP(=O)(Nc1ccc(SC(F)(F)F)cc1)Oc1ccc(F)cc1 (centres undefined) | inactive: -6.09%
CCOP(C)(=S)SCC(=O)NC(C)(CC)C(=O)O (centres undefined) | inactive: -0.79%
CP(=O)(Nc1ccc2c(c1)OCCO2)Oc1ccccc1 (centres undefined) | inactive: -4.64%
Cc1ccccc1NP(C)(=O)Nc1ccccc1C | inactive: -6.32%
O=[N+]([O-])c1cc([N+](=O)[O-])c(Nc2ccc(Cl)cc2)c([N+](=O)[O-])c1 | inactive: 14.4%
CC(C)c1ccc(OP(C)(=O)Nc2ccc(SC(F)(F)F)cc2)cc1 (centres undefined) | inactive: -29%
